Data: patent US20130005012A1, “ENZYMATIC SYSTEM FOR MONOMER SYNTHESIS” (PHYTOGENE, INC., priority 2011, published 2013)

Parameters: species or system E. coli
Protocol: To examine the activity of purified FDC1 in vitro, we constructed an expression vector and expressed FDC1 in E. coli under various conditions. Plasmid pDEST17-FDC1 was transformed into E. Coli strain BL21(DE3) competent cells. Terrific-broth media supplemented with ampicillin (100 μg/mL) was inoculated with a 1000-time dilution of an overnight culture. The bacteria were cultured at 37° C. until OD600 reached 0.8 to 1.0, at which point isopropyl f3-D-1-thiogalactopyranoside (IPTG) was added to a final concentration of 0.2 mM, and continued to be cultured for 3 hours at the same temperature. We used three different lysis buffers to check the expression of FDC1. Buffer A contained 25 mM potassium phosphate buffer pH 7.5, 500 mM sodium chloride, 10 mM imidazole, 20 mM PME, 0.5 mM PMSF, 10 mM MgCl2, 2 μg/mL DNAse, 2 μg/mL RNAse, and 4 μg/mL lysozyme. Buffer B contained 50 mM potassium phosphate pH buffer 7.0, 1 mM DTT, 50 mM sodium thiosulfate, 20% glycerol, 500 mM NaCl, 10 mM MgCl2, 20 mM imidazole, 2 μg/mL DNAse, 2 μg/mL RNAse, and 4 μg/mL lysozyme. Buffer C was composed of Buffer A containing 50 mM sodium thiosulfate and 20% glycerol.
To produce functional FDC1 in E. coli, expression of FDC1 was induced at various temperatures (37° C., 30° C., 25° C., 18° C., and 16° C.) in the presence of various concentrations of IPTG (0.2 mM, 0.5 mM). […]

B1: yeast FDC (ferulic acid decarboxylase, FDC1, Saccharomyces cerevisiae) in bait vector pGBKT7-Gateway (enzyme)
chain: MRKLNPALEFRDFIQVLKDEDDLIEITEEIDPNLEVGAIMRKAYESHLPAPLFKNLKGASKDLFSILGCPAGLRSKEKGDHGRIAHHLGLDPKTTIKEIIDYLLECKEKEPLPPITVPVSSAPCKTHILSEEKIHLQSLPTPYLHVSDGGKYLQTYGMWILQTPDKKWTNWSIARGMVVDDKHITGLVIKPQHIRQIADSWAAIGKANEIPFALCFGVPPAAILVSSMPIPEGVSESDYVGAILGESVPVVKCETNDLMVPATSEMVFEGTLSLTDTHLEGPFGEMHGYVFKSQGHPCPLYTVKAMSYRDNAILPVSNPGLCTDETHTLIGSLVATEAKELAIESGLPILDAFMPYEAQALWLILKVDLKGLQALKTTPEEFCKKVGDIYFRTKVGFIVHEIILVADDIDIFNFKEVIWAYVTRHTPVADQMAFDDVTSFPLAPFVSQSSRSKTMKGGKCVTNCIFRQQYERSFDYITCNFEKGYPKGLVDKVNENWKRYGYK
notes: Yeast two-hybrid bait fusion expressed in Clontech Y2HGold cells; also called FDC (Bait vector); not shown: fusion partner encoded by yeast two-hybrid bait vector pGBKT7-Gateway
- effect of induction temperature on expression and solubility: lower temperature improved expression and solubility
